Values of other authors as cited in article PMC8198792, “Prediction of Anticancer Peptides with High Efficacy and Low Toxicity by Hybrid Model Based on 3D Structure of Peptides” (International Journal of Molecular Sciences, 2021).

Experiments:
[1] = tested on: many types of cells, including non-cancer cells; set-up: key: The majority of toxic peptides in the SATPdb are peptide toxins from ATDB [50], Tox-Prot [51], ConoServer [52] and DBETH [53]; 0: Non-toxic AMPs were retrieved from SATPdb as non-toxic peptides, that is, negative datasets; details: toxic peptides dataset TD2; class label 1 (toxic, positive set) or 0 (non-toxic AMP, negative set); ref SATPdb; cited from earlier work
Excerpt: Supplement ijms-22-05630-s001.zip/Toxic Peptides(seguence).xlsx, sheet "TD1" | column: Activity || Supplement ijms-22-05630-s001.zip/Toxic Peptides(seguence).xlsx, sheet "TD2" | column: Activity || Supplement ijms-22-05630-s001.zip/Toxic Peptides(seguence).xlsx, sheet "TD3" | column: Activity

[2] = tested on: cancer cell lines; set-up: method as in 6 sources, ref CancerPPD [45] and SATPdb ||| ref CancerPPD/SATPdb ||| ref CancerPPD, SATPdb, Swissprot (PDB) ||| ref CancerPPD/SATPdb/Swissprot(PDB) ||| ref CancerPPD / SATPdb ||| ...; details: cited from earlier work
Excerpt: Supplement ijms-22-05630-s001.zip/ACPs(seguence).xlsx, sheet "D1" | column: Activity || Supplement ijms-22-05630-s001.zip/ACPs(seguence).xlsx, sheet "D2" | column: Activity || Supplement ijms-22-05630-s001.zip/ACPs(seguence).xlsx, sheet "D3" | column: Activity || (+ 2 further places)

Sequence: ACDTATCVTHRLAGLLSRSGGVVKNNFVPTNVGSKAF [satpdb15418]
- Activity [1]: 0

Sequence: LTFEHYWAQLTS [compound 4579]
- Activity ([2]; ACPs dataset D1, 1 = ACP (positive), 0 = non-ACP (negative), label taken from databases, ref CancerPPD [45] and SATPdb): 1
- Activity ([2]; ACPs dataset D4 (sheet "D4"), label 1 = ACP, experimentally validated ACPs, ref CancerPPD [45] and SATPdb): 1
- Activity ([2]; ACPs dataset D5 (sheet "D5"), label 1 = ACP (positive set), sequences with CancerPPD/SATPdb ID, ref CancerPPD, SATPdb): 1
- Activity ([2]; ACPs dataset sheet D2, 1 = ACP (CancerPPD/SATPdb ID), 0 = non-ACP (Swissprot/PDB ID), ref CancerPPD, SATPdb, Swissprot (PDB)): 1

Like-named read-outs stand apart in the source and are kept apart here.
